Experimental data reported in patent US20250134865A1, “METHODS OF WEIGHT LOSS IN A SUBJECT WITH ELEVATED HBA1C” (published 2025).

Legend:
[1] = tested on: subjects with nonalcoholic fatty liver disease (NAFLD), elevated liver fat (>8%), and elevated body mass index (BMI); experiment: Phase 2a trial: liver fat content by MRI-PDFF; conditions: for Responder (>30% liver fat reduction by MRI-PDFF), share of subjects / MRI-Proton Density Fat Fraction, Difference in LS Mean, Compound 1-Placebo / Relative reduction in liver fat: Day 61; for Relative reduction in liver fat: overall; for placebo-corrected mean percent change from baseline in liver fat (MRI-PDFF): range across doses
[2] = tested on: subjects with nonalcoholic fatty liver disease (NAFLD), elevated liver fat (>8%), and elevated body mass index (BMI); experiment: Phase 2a trial: CAP score
[3] = 150 mg, HbA1c 5.7% to 9.0% subgroup
[4] = 150 mg, HbA1c 5.7%-9.0% subgroup
[5] = 300 mg, HbA1c 5.7% to 9.0% subgroup
[6] = 300 mg, HbA1c 5.7%-9.0% subgroup
[7] = 450 mg, HbA1c 5.7% to 9.0% subgroup
[8] = 450 mg, HbA1c 5.7%-9.0% subgroup

Structure (SMILES): Cn1c(COc2ccc([N+](=O)[O-])cc2[N+](=O)[O-])cnc1[N+](=O)[O-]
- Non-responder (MRI-PDFF), share of subjects ([1]; 150 mg, FAS population): 10 (50.0%)
- Responder (>30% liver fat reduction by MRI-PDFF), share of subjects ([1]; 150 mg, FAS population): 40%
- Responder (>30% liver fat reduction by MRI-PDFF), share of subjects ([1]; 150 mg, FAS population, listed as CM1): 8 (40.0%)
- MRI-Proton Density Fat Fraction at Day 61, Mean [1, 3]: 16.2%
- MRI-Proton Density Fat Fraction at Day 61, Median [1, 3]: 19.0%
- MRI-Proton Density Fat Fraction, Day 61-Baseline, LS Mean [1, 3]: −5.35%
- MRI-Proton Density Fat Fraction, Day 61-Baseline, Mean [1, 3]: −6.6%
- MRI-Proton Density Fat Fraction, Day 61-Baseline, Median [1, 3]: −8.0%
- MRI-PDFF percent change from baseline to Day 61, Median [1, 4]: −32.985%
- Non-responder (MRI-PDFF), share of subjects [1, 4]: 3 (42.9%)
- Responder (>30% liver fat reduction by MRI-PDFF), share of subjects [1, 4]: 43%
- Responder (>30% liver fat reduction by MRI-PDFF), share of subjects ([1]; 150 mg, HbA1c 5.7%-9.0% subgroup, listed as CM1): 3 (42.9%)
- MRI-Proton Density Fat Fraction at Day 61, Mean ([1]; 150 mg, all subjects): 13.7%
- MRI-Proton Density Fat Fraction at Day 61, Median ([1]; 150 mg, all subjects): 12.7%
- MRI-Proton Density Fat Fraction, Day 61-Baseline, LS Mean ([1]; 150 mg, all subjects): −4.64%
- MRI-Proton Density Fat Fraction, Day 61-Baseline, Mean ([1]; 150 mg, all subjects): −5.0%
- MRI-Proton Density Fat Fraction, Day 61-Baseline, Median ([1]; 150 mg, all subjects): −5.8%
- MRI-PDFF percent change from baseline to Day 61, Mean ([1]; 300 mg once daily oral, HbA1c 5.7%-9.0% subgroup): −39.186%
- MRI-Proton Density Fat Fraction, Difference in LS Mean, Compound 1-Placebo [1, 5]: −6.89%
- MRI-Proton Density Fat Fraction, Difference in LS Mean, Compound 1-Placebo ([1]; 300 mg, all subjects): −6.77%
- Non-responder (MRI-PDFF), share of subjects ([1]; 300 mg, FAS population): 5 (23.8%)
- Responder (>30% liver fat reduction by MRI-PDFF), share of subjects ([1]; 300 mg, FAS population): 71%
- Responder (>30% liver fat reduction by MRI-PDFF), share of subjects ([1]; 300 mg, FAS population, listed as CM1): 15 (71.4%)
- MRI-Proton Density Fat Fraction at Day 61, Mean [1, 5]: 14.0%
- MRI-Proton Density Fat Fraction at Day 61, Median [1, 5]: 16.1%
- MRI-Proton Density Fat Fraction, Day 61-Baseline, LS Mean [1, 5]: −6.41%
- MRI-Proton Density Fat Fraction, Day 61-Baseline, Mean [1, 5]: −7.1%
- MRI-Proton Density Fat Fraction, Day 61-Baseline, Median [1, 5]: −9.0%
- MRI-PDFF change from baseline at Day 61, Difference of LS Mean and Placebo [1, 6]: −6.89
- MRI-PDFF mean change from baseline at Day 61, LS Mean (ANCOVA) [1, 6]: −6.41
- MRI-PDFF percent change from baseline to Day 61, Median [1, 6]: −39.730%
- Non-responder (MRI-PDFF), share of subjects [1, 6]: 1 (12.5%)
- Responder (>30% liver fat reduction by MRI-PDFF), share of subjects [1, 6]: 75%
- Responder (>30% liver fat reduction by MRI-PDFF), share of subjects ([1]; 300 mg, HbA1c 5.7%-9.0% subgroup, listed as CM1): 6 (75.0%)
- MRI-Proton Density Fat Fraction at Day 61, Mean ([1]; 300 mg, all subjects): 11.2%
- MRI-Proton Density Fat Fraction at Day 61, Median ([1]; 300 mg, all subjects): 10.4%
- MRI-Proton Density Fat Fraction, Day 61-Baseline, LS Mean ([1]; 300 mg, all subjects): −6.21%
- MRI-Proton Density Fat Fraction, Day 61-Baseline, Mean ([1]; 300 mg, all subjects): −6.2%
- MRI-Proton Density Fat Fraction, Day 61-Baseline, Median ([1]; 300 mg, all subjects): −5.9%
- MRI-PDFF percent change from baseline to Day 61, Mean ([1]; 450 mg once daily oral, HbA1c 5.7%-9.0% subgroup): −43.734%
- MRI-Proton Density Fat Fraction, Difference in LS Mean, Compound 1-Placebo [1, 7]: −7.45%
- MRI-Proton Density Fat Fraction, Difference in LS Mean, Compound 1-Placebo ([1]; 450 mg, all subjects): −6.60%
- Non-responder (MRI-PDFF), share of subjects ([1]; 450 mg, FAS population): 5 (27.8%)
- Responder (>30% liver fat reduction by MRI-PDFF), share of subjects ([1]; 450 mg, FAS population): 72%
- Responder (>30% liver fat reduction by MRI-PDFF), share of subjects ([1]; 450 mg, FAS population, listed as CM1): 13 (72.2%)
- MRI-Proton Density Fat Fraction at Day 61, Mean [1, 7]: 10.7%
- MRI-Proton Density Fat Fraction at Day 61, Median [1, 7]: 8.8%
- MRI-Proton Density Fat Fraction, Day 61-Baseline, LS Mean [1, 7]: −6.97%
- MRI-Proton Density Fat Fraction, Day 61-Baseline, Mean [1, 7]: −6.5%
- MRI-Proton Density Fat Fraction, Day 61-Baseline, Median [1, 7]: −4.7%
- MRI-PDFF change from baseline at Day 61, Difference of LS Mean and Placebo [1, 8]: −7.45
- MRI-PDFF mean change from baseline at Day 61, LS Mean (ANCOVA) [1, 8]: −6.97
- MRI-PDFF percent change from baseline to Day 61, Median [1, 8]: −43.100%
- Non-responder (MRI-PDFF), share of subjects [1, 8]: 1 (14.3%)
- Responder (>30% liver fat reduction by MRI-PDFF), share of subjects [1, 8]: 86%
- Responder (>30% liver fat reduction by MRI-PDFF), share of subjects ([1]; 450 mg, HbA1c 5.7%-9.0% subgroup, listed as CM1): 6 (85.7%)
- MRI-Proton Density Fat Fraction at Day 61, Mean ([1]; 450 mg, all subjects): 11.2%
- MRI-Proton Density Fat Fraction at Day 61, Median ([1]; 450 mg, all subjects): 8.8%
- MRI-Proton Density Fat Fraction, Day 61-Baseline, LS Mean ([1]; 450 mg, all subjects): −6.03%
- MRI-Proton Density Fat Fraction, Day 61-Baseline, Mean ([1]; 450 mg, all subjects): −6.0%
- MRI-Proton Density Fat Fraction, Day 61-Baseline, Median ([1]; 450 mg, all subjects): −5.1%
- Non-responder (MRI-PDFF), share of subjects ([1]; All CM1 doses, FAS population): 20 (33.9%)
- Non-responder (MRI-PDFF), share of subjects ([1]; All CM1 doses, HbA1c 5.7%-9.0% subgroup): 5 (22.74%)
- Relative reduction in liver fat ([1]; high dose (450 mg)): 40%
- Relative reduction in liver fat ([1]; low dose (150 mg)): 33%
- Relative reduction in liver fat ([1]; mid dose (300 mg)): 43%
- placebo-corrected mean percent change from baseline in liver fat (MRI-PDFF) ([1]; subgroup with elevated HbA1c): −42% to −50
- placebo-corrected mean percent change from baseline in liver fat (MRI-PDFF) ([1]; subjects overall): −33% to 43 and −33% to −43
- CAP, LS mean change at day 61 ([2]; 150 mg, HbA1c subgroup): −33.2^a dB/m
- CAP, LS mean change at day 61 ([2]; 150 mg, overall population): −22.2 dB/m
- CAP, LS mean change at day 61 ([2]; 300 mg, HbA1c subgroup): −39.8^a dB/m
- CAP, LS mean change at day 61 ([2]; 300 mg, overall population): −44.9^c dB/m
- CAP, LS mean change at day 61 ([2]; 450 mg, HbA1c subgroup): −20.0 dB/m
- CAP, LS mean change at day 61 ([2]; 450 mg, overall population): −38.3^b dB/m

Values joined by “and” are separate entries in the source; they are usually repeats but may differ in a detail not shown here. Equal values may be shown once. Marks after values point to notes of the source that are not given here.
